{
  "source": "PubChem BioAssay AID624288",
  "about": "(National Center for Advancing Translational Sciences (NCATS), 2012)",
  "note": "This is a selection; strong and weak results do not stand in their true shares. Results filed as inconclusive are left out. Active and inactive are the calls of the source. Calls follow the shape of the full dose curve; cell line not stated here. % is scaled to controls: 0 for no effect and ±100 for the full control effect.",
  "data": [
    {"assay": "qHTS for Antagonists of gsp, the Etiologic Mutation Responsible for Fibrous Dysplasia/McCune-Albright Syndrome: qHTS; also: nearly all actives have a fitted effect of over 65% in size", "conditions": "gsp-mutant cells, cAMP HTRF, 30 min; at 76.9 µM (top of the series) unless noted", "values": [
      {"compound": "CC(C)(C)c1ccc(OP(C)(=O)O)cc1", "activity change, negative = inhibition": "inactive: 2.14%"},
      {"compound": "COc1ccccc1OP(C)(=O)Nc1ccccc1Br", "note": "(stereo not given)", "activity change, negative = inhibition": "inactive: 10.6%"},
      {"compound": "CC1CCN(C(=O)Oc2c(Cl)cc(Cl)c3cccnc23)CC1", "activity change, negative = inhibition": "inactive: 0.529%"},
      {"compound": "CN(C)C(=O)OCCc1n(C)cc[n+]1C", "activity change, negative = inhibition": "inactive: 17.4%"},
      {"compound": "CC(C)=N/N=C(\\N)N[N+](=O)[O-]", "activity change, negative = inhibition": "inactive: 7.95%"},
      {"compound": "CN(C)C(=O)c1c([N+](=O)[O-])cc([N+](=O)[O-])cc1[N+](=O)[O-]", "activity change, negative = inhibition": "inactive: 4.11%"},
      {"compound": "COc1ccc(C2=NCC(CBr)S2)cc1", "note": "(stereo not given)", "activity change, negative = inhibition": "inactive: -1.15%"},
      {"compound": "COc1ccc(OP(C)(=O)Nc2ccc(Br)cc2)cc1", "note": "(stereo not given)", "activity change, negative = inhibition": "inactive: 3.66%"},
      {"compound": "CCN(CC)CC(O)COC(=O)C(O)(c1ccccc1)C1CCCCC1", "note": "(stereo not given)", "activity change, negative = inhibition": "inactive: 12.7%"},
      {"compound": "CCc1nc2c(n1)c1c(non1O)c1c2no[n+]1[O-]", "activity change, negative = inhibition": "inactive: -15.6%"},
      {"compound": "CCc1ccc(OP(C)(=O)Nc2cccnc2)cc1", "note": "(stereo not given)", "activity change, negative = inhibition": "inactive: 1.46%"},
      {"compound": "Cc1ccc(NP(=O)(Oc2ccccc2)Oc2ccccc2)nc1", "activity change, negative = inhibition": "inactive: -8.1%"},
      {"compound": "CP(=O)(Oc1ccccc1)N1CCOC1=O", "note": "(stereo not given)", "activity change, negative = inhibition": "inactive: 4.35%"},
      {"compound": "O=C(OCCCN1CCCC1)C(O)(c1ccccc1)C1CCCCC1", "note": "(stereo not given)", "activity change, negative = inhibition": "inactive: 15.2%"},
      {"compound": "COc1ccccc1OP(C)(=O)Nc1c(C)n(C)n(-c2ccccc2)c1=O", "note": "(stereo not given)", "activity change, negative = inhibition": "inactive: 4.65%"},
      {"compound": "CC(=O)N1C2C3N(C(C)=O)C1C1N(C(C)=O)C(C(N1C(C)=O)N3C(C)=O)N2C(C)=O", "activity change, negative = inhibition": "inactive: 1.18%"},
      {"compound": "O=[N+]([O-])c1cccc2n[nH]nc12", "activity change, negative = inhibition": "inactive: -1.66%"},
      {"compound": "O=[N+]([O-])c1ncn(CCn2ncnc2[N+](=O)[O-])n1", "activity change, negative = inhibition": "inactive: 2.75%"},
      {"compound": "CC(C)(C)C(=O)NC(Sc1ccncn1)C(Cl)(Cl)Cl", "note": "(stereo not given)", "activity change, negative = inhibition": "inactive: 11.4%"},
      {"compound": "O=C(O)CNc1ccc([As](=O)(O)O)cc1", "activity change, negative = inhibition": "inactive: 1.89%"},
      {"compound": "O=[N+]([O-])c1cccc(NC2=NCC(CBr)S2)c1", "note": "(stereo not given)", "activity change, negative = inhibition": "inactive: 6.08%"},
      {"compound": "COC(=O)C1(C)COP(=O)(Nc2ccccc2)OC1", "note": "(stereo not given)", "activity change, negative = inhibition": "inactive: 0.803%"},
      {"compound": "O=P1(N(CCCl)CCCl)OCCCS1", "note": "(stereo not given)", "activity change, negative = inhibition": "inactive: 7.87%"},
      {"compound": "Nc1ccc2c(ccc3cccnc32)n1.O=[N+]([O-])c1cc([N+](=O)[O-])c(O)c([N+](=O)[O-])c1", "activity change, negative = inhibition": "inactive: 10.5%"},
      {"compound": "CP(=O)(OC12CC3CC(CC(C3)C1)C2)OC12CC3CC(CC(C3)C1)C2", "activity change, negative = inhibition": "inactive: -3.24%"},
      {"compound": "O=C(Nc1cc([As](=O)(O)O)ccc1O)c1ccccc1", "activity change, negative = inhibition": "inactive: 8.26%"},
      {"compound": "CCOC(=O)c1ccc(NP(C)(=O)Oc2ccc(Cl)cc2)cc1", "note": "(stereo not given)", "activity change, negative = inhibition": "inactive: 11.2%"},
      {"compound": "CP(=O)(OCCOc1ccccc1)OCCOc1ccccc1", "activity change, negative = inhibition": "inactive: -3.14%"},
      {"compound": "CP(=O)(Nc1ccc(Cl)cc1Cl)Oc1ccccc1", "note": "(stereo not given)", "activity change, negative = inhibition": "inactive: 7.43%"},
      {"compound": "CCCCCCCCCCCCCCCC1C[N+](C)(C)CCOP(C)(=O)O1", "note": "(stereo not given)", "activity change, negative = inhibition": "inactive: 2.69%"},
      {"compound": "Nc1cccc2ccc([As](=O)(O)O)cc12", "activity change, negative = inhibition": "inactive: 0.984%"},
      {"compound": "CCN(N=Nc1nonc1N)c1nonc1N", "activity change, negative = inhibition": "inactive: -5.33%"},
      {"compound": "Cc1cc(C)cc(OP(C)(=O)Nc2cccc(C(F)(F)F)c2)c1", "note": "(stereo not given)", "activity change, negative = inhibition": "inactive: 5.99%"},
      {"compound": "CCCC1OP(N)(=O)OCC1CC", "note": "(stereo not given)", "activity change, negative = inhibition": "inactive: 8.8%"},
      {"compound": "O=C(O)c1ccccc1[As](=O)(O)O", "activity change, negative = inhibition": "inactive: 14.2%"},
      {"compound": "CC(=O)Nc1ccc([As](=O)(O)O)cc1", "activity change, negative = inhibition": "inactive: 11.4%"},
      {"compound": "COc1ccc(OP(C)(=O)Nc2ccccc2Br)cc1", "note": "(stereo not given)", "activity change, negative = inhibition": "inactive: 8.54%"},
      {"compound": "CN(C(=O)Cc1ccc(Cl)c(Cl)c1)[C@H]1CCCC[C@@H]1N1CCCC1", "activity change, negative = inhibition": "inactive: 5.22%"},
      {"compound": "Cc1ccc(NP(=O)(Oc2ccccc2F)Oc2ccccc2F)nc1", "activity change, negative = inhibition": "inactive: 1.89%"},
      {"compound": "COc1ccccc1OP(C)(=O)Nc1ccc(C)c(C)c1", "note": "(stereo not given)", "activity change, negative = inhibition": "inactive: 14.5%"},
      {"compound": "CCOP(=O)(Nc1ccccc1)OCC", "activity change, negative = inhibition": "inactive: -0.835%"},
      {"compound": "Cc1cc(SC(NC(=O)c2ccc(F)cc2)C(Cl)(Cl)Cl)ncn1", "note": "(stereo not given)", "activity change, negative = inhibition": "inactive: 6.95%"},
      {"compound": "O=C(NC(Sc1ccncn1)C(Cl)(Cl)Cl)c1ccccc1", "note": "(stereo not given)", "activity change, negative = inhibition": "inactive: 12.2%"},
      {"compound": "Oc1ccccc1CNc1ccccn1", "activity change, negative = inhibition": "inactive: 5.7%"},
      {"compound": "O=[N+]([O-])c1cc([N+](=O)[O-])c(Nc2ccccn2)c([N+](=O)[O-])c1", "activity change, negative = inhibition": "inactive: -26.9%"},
      {"compound": "CC(C)CC(=O)NC(Sc1ccc(Cl)cc1)C(Cl)(Cl)Cl", "note": "(stereo not given)", "activity change, negative = inhibition": "inactive: -4.11%"},
      {"compound": "Nc1cc(N)c2nonc2c1[N+](=O)[O-]", "activity change, negative = inhibition": "inactive: 5.14%"},
      {"compound": "Cc1c(NP(C)(=O)Oc2ccc(C(C)C)cc2)c(=O)n(-c2ccccc2)n1C", "note": "(stereo not given)", "activity change, negative = inhibition": "inactive: -1.31%"},
      {"compound": "CCc1ccc(OP(C)(=O)O)cc1", "activity change, negative = inhibition": "inactive: 3.31%"},
      {"compound": "COc1ccccc1OP(C)(=O)Nc1ccc(C)cc1C", "note": "(stereo not given)", "activity change, negative = inhibition": "inactive: 1.58%"},
      {"compound": "CP(=O)(Nc1ccccn1)Oc1ccccc1", "note": "(stereo not given)", "activity change, negative = inhibition": "inactive: -1.5%"},
      {"compound": "COc1ccccc1OP(C)(=O)Nc1ccc(Br)cc1", "note": "(stereo not given)", "activity change, negative = inhibition": "inactive: -0.861%"},
      {"compound": "CN(C(=O)Cc1ccc(Cl)c(Cl)c1)[C@H]1CCCC[C@H]1N1CCCC1", "activity change, negative = inhibition": "inactive: -2.7%"},
      {"compound": "NC(=O)c1cc([N+](=O)[O-])cc([N+](=O)[O-])c1N", "activity change, negative = inhibition": "inactive: 3.85%"},
      {"compound": "CN(C)CCOC(=O)C(O)(c1ccccc1)C1CCCC1", "note": "(stereo not given)", "activity change, negative = inhibition": "inactive: 0.857%"},
      {"compound": "Clc1ccc(Cl)c(NC2=NCC(CBr)S2)c1", "note": "(stereo not given)", "activity change, negative = inhibition": "inactive: -1.11%"},
      {"compound": "CN1CCCC(OC(=O)C(c2ccccc2)c2ccccc2)C1", "note": "(stereo not given)", "activity change, negative = inhibition": "inactive: 11%"},
      {"compound": "Cc1ccc(OP(=O)(Nc2nccs2)Oc2ccc(C)cc2)cc1", "activity change, negative = inhibition": "inactive: 6.77%"},
      {"compound": "COc1ccc(OP(C)(=O)Nc2ccccn2)cc1", "note": "(stereo not given)", "activity change, negative = inhibition": "inactive: 4.82%"},
      {"compound": "COc1ccccc1OP(=O)(Nc1ccc(C)cn1)Oc1ccccc1OC", "activity change, negative = inhibition": "inactive: 0.991%"}
    ]}
  ]
}
